From paper PMC5155509 (ChemMedChem, 2016)

Key:
B. subtilis = test: Synergy/antagonism two-drug combination assay, B. subtilis; assay type: cell-based, Bacillus subtilis
S. aureus = test: Synergy/antagonism two-drug combination assay, S. aureus; assay type: cell-based, Staphylococcus aureus; conditions: for FIC Index: combination of the antibiotic with 7, mean±SD
[1] = antibiotic in combination with 7, mean±SD duplicate

- MIC antibiotic (B. subtilis; antibiotic alone): 1.5 µg/mL
- MIC antibiotic (S. aureus; antibiotic alone): 1.5 µg/mL
Structure (SMILES): NC[C@H]1O[C@H](O[C@H]2[C@H](O)[C@@H](O[C@H]3O[C@H](CO)[C@@H](O)[C@H](N)[C@H]3O)[C@H](N)C[C@@H]2N)[C@H](O)[C@@H](O)[C@@H]1O [Kanamycin, kanamycin]
- FIC antibiotic (B. subtilis; [1]): 0.64 ± 0.14
- FIC Index (B. subtilis; combination of the antibiotic with 7, mean±SD): 1.36 ± 0.33
- FIC antibiotic (S. aureus; [1]): 0.89 ± 0.68
- FIC Index (S. aureus): 1.72 ± 0.74
- FIC Index (S. aureus; listed as kanamycin): 1.72
